Measurements reported in patent US20230365568A1.
Read-outs that look alike come from different tables or passages of the source. Marks after values point to notes of the source that are not given here.

The chains behind the UniProt entries cited, without tags or fusion partners.
UniProt P53350, whole entry: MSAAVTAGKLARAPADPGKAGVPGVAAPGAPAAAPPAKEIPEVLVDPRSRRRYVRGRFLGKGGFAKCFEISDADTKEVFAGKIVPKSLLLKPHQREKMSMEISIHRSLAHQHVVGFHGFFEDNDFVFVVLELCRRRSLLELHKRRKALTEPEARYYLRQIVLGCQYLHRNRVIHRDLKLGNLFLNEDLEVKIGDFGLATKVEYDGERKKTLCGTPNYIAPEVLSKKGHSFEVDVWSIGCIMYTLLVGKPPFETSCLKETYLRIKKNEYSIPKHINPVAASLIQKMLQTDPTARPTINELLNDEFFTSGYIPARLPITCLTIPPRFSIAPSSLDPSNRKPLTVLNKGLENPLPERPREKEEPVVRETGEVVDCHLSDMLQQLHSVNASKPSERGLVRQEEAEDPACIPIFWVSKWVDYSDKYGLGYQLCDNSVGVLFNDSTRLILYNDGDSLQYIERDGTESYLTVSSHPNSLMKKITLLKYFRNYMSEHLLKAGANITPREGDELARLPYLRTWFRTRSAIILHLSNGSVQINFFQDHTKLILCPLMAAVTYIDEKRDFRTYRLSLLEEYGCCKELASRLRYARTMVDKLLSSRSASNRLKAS

Columns and labels:
[1] = data from Alverez et al., 2020, cited from earlier work
[2] = data from Alverez et al., 2020, cited from earlier work; remark: listed apart in the source
[3] = data from Alverez et al., 2020, cited from earlier work; remark: listed apart in the source
full-length human Plk1 = full-length human Plk1 (Homo sapiens (Human), UniProt P53350); test: ELISA-based Plk1 PBD-binding inhibition assay; details: read-out: IC50 ± sd (μM, ELISA), at least three independent experiments

COc1cccc(CC(=O)NCCCn2c(=O)c3cc(F)ccc3n3c(=S)[nH]nc23)c1
Solub. ([1]; tested form: TFA): >65 µg/mL
PAMPA ([2]; tested form: TFA): 300 ×10⁻⁶ cm/s

N#Cc1ccc(CC(=O)NCCCn2c(=O)c3cc(F)ccc3n3c(=S)[nH]nc23)cc1
Solub. ([1]; tested form: TFA): 2.0 µg/mL
t1/2 (min, RLM) ([3]; tested form: TFA): >30 min
PAMPA ([2]; tested form: TFA): 172 ×10⁻⁶ cm/s

O=C(Cc1ccc(I)cc1)NCCCn1c(=O)c2cc(F)ccc2n2c(=S)[nH]nc12
IC50 (full-length human Plk1): 2.4 µM

O=C(Cc1ccc(N=C=S)cc1)NCCCn1c(=O)c2cc(F)ccc2n2c(=S)[nH]nc12
IC50 (full-length human Plk1): 1.4 µM

O=c1c2cccc(F)c2n2c(=S)[nH]nc2n1CCc1ccccc1
Solub. ([1]; tested form: TFA): 3.4 µg/mL
t1/2 (min, RLM) ([3]; tested form: TFA): >30 min
PAMPA ([2]; tested form: TFA): 141 ×10⁻⁶ cm/s

CCCn1c(=O)c2ccccc2n2c(=S)[nH]nc12 [compound 21]
Solub. [1]: 21.3 µg/mL
t1/2 (min, RLM) [3]: >30 min
PAMPA [2]: 37.0 ×10⁻⁶ cm/s

O=c1c2ccccc2n2c(=S)[nH]nc2n1CCC(F)(F)F [compound 27]
Solub. ([1]; tested form: TFA): 23.3 µg/mL
t1/2 (min, RLM) ([3]; tested form: TFA): >30, min
PAMPA ([2]; tested form: TFA): 82 ×10⁻⁶ cm/s

CCCn1c(=O)c2cc(F)ccc2n2c(=S)[nH]nc12 [compound 64]
Solub. [1]: >28 µg/mL
t1/2 (min, RLM) [3]: >30 min
PAMPA [2]: 195 ×10⁻⁶ cm/s

O=c1c2cc(F)ccc2n2c(=S)[nH]nc2n1CCC(F)(F)F [compound 65]
Solub. ([1]; tested form: TFA): 17.3 µg/mL
t1/2 (min, RLM) ([3]; tested form: TFA): >30 min
PAMPA ([2]; tested form: TFA): 117 ×10⁻⁶ cm/s

NCCCn1c(=O)c2cc(F)ccc2n2c(=S)[nH]nc12 [compound 68]
Solub. ([1]; Free base, tested form: TFA): 27 µg/mL
Solub. ([1]; TFA salt, tested form: TFA): > 43 µg/mL
t1/2 (min, RLM) ([3]; Free base, tested form: TFA): >30^c >30^d min
t1/2 (min, RLM) ([3]; TFA salt, tested form: TFA): >30^c >30^d min
PAMPA ([2]; Free base, tested form: TFA): 16.8 ×10⁻⁶ cm/s
PAMPA ([2]; TFA salt, tested form: TFA): < 1 ×10⁻⁶ cm/s

O=c1c2cc(F)ccc2n2c(=S)[nH]nc2n1CC1CC1 [compound 79]
Solub. ([1]; tested form: TFA): 16.2 µg/mL
t1/2 (min, RLM) ([3]; tested form: TFA): >30 min
PAMPA ([2]; tested form: TFA): 46.0 ×10⁻⁶ cm/s

O=c1c2cc(F)ccc2n2c(=S)[nH]nc2n1CCc1ccncc1 [compound 85]
Solub. ([1]; tested form: TFA): 10.9 µg/mL
t1/2 (min, RLM) ([3]; tested form: TFA): >30 min

O=C(Cc1ccc(O)cc1)NCCCn1c(=O)c2cc(F)ccc2n2c(=S)[nH]nc12 [compound 127]
Solub. ([1]; tested form: TFA): 31.0 µg/mL
t1/2 (min, RLM) ([3]; tested form: TFA): >30 min
